Like-named read-outs stand apart in the source and are kept apart here.
Columns and labels:
[1] = biological target: human neutrophil elastase (human) (UniProt P08246); test: immobilized HNE, pH 5.0 wash
[2] = biological target: human neutrophil elastase (human) (UniProt P08246); test: mixture of two phage on immobilized HNE, pH 6.0 wash
[3] = biological target: human neutrophil elastase (human) (UniProt P08246); test: immobilized HNE, pH 3.5 wash
[4] = biological target: human neutrophil elastase (human) (UniProt P08246); test: immobilized HNE, pH 7.0 wash
[5] = biological target: human neutrophil elastase (human) (UniProt P08246); test: immobilized HNE, pH 4.5 wash
[6] = biological target: human neutrophil elastase (human) (UniProt P08246); test: immobilized HNE, pH 5.5 wash
[7] = biological target: human neutrophil elastase (human) (UniProt P08246); test: immobilized HNE, sum of pH washes
[8] = biological target: human neutrophil elastase (human) (UniProt P08246); test: immobilized HNE, pH 3.5 wash; remark: listed apart in the source
[9] = biological target: human neutrophil elastase (human) (UniProt P08246); test: immobilized HNE, sum of pH washes; remark: listed apart in the source
[10] = biological target: human neutrophil elastase (human) (UniProt P08246); test: immobilized HNE, pH 4.5 wash; remark: listed apart in the source
[11] = biological target: human neutrophil elastase (human) (UniProt P08246); test: mixture of two phage on immobilized HNE, pH 7.0 wash
[12] = biological target: human neutrophil elastase (human) (UniProt P08246); test: immobilized HNE, pH 6.0 wash
[13] = biological target: human neutrophil elastase (human) (UniProt P08246); test: fractionation of a phage mixture on immobilized HNE
trypsin [14] = biological target: trypsin (UniProt P00760); test: pfu acid eluted from trypsin beads
[15] = biological target: human neutrophil elastase (human) (UniProt P08246); test: immobilized HNE, pH 4.0 wash
[16] = biological target: human neutrophil elastase (human) (UniProt P08246); test: mixture of two phage on immobilized HNE, pH 4.0 wash
[17] = biological target: human neutrophil elastase (human) (UniProt P08246); test: pfu acid eluted from HNE beads
[18] = biological target: human neutrophil elastase (human) (UniProt P08246); test: immobilized HNE, pH 6.0 wash; remark: listed apart in the source
[19] = biological target: human neutrophil elastase (human) (UniProt P08246); test: immobilized HNE, pH 7.0 wash; remark: listed apart in the source
[20] = biological target: human neutrophil elastase (human) (UniProt P08246); test: immobilized HNE, pH 4.25 wash
[21] = biological target: human neutrophil elastase (human) (UniProt P08246); test: immobilized HNE, pH 4.75 wash
[22] = biological target: human neutrophil elastase (human) (UniProt P08246); test: immobilized HNE, pH 5.0 wash; remark: listed apart in the source
[23] = biological target: human neutrophil elastase (human) (UniProt P08246); test: immobilized HNE, pH 4.0 wash; remark: listed apart in the source
[24] = biological target: human neutrophil elastase (human) (UniProt P08246); test: mixture of two phage on immobilized HNE, pH 5.0 wash
[25] = biological target: human neutrophil elastase (human) (UniProt P08246); test: pH 2.2 eluate from immobilized HNE
[26] = biological target: human neutrophil elastase (human) (UniProt P08246); test: immobilized HNE, pH 2.2 wash
[27] = biological target: human neutrophil elastase (human) (UniProt P08246); test: pH 2.2 eluates from immobilized proteases
trypsin [28] = biological target: trypsin (UniProt P00760); test: pH 2.2 eluate from immobilized trypsin
[29] = biological target: human neutrophil elastase (human) (UniProt P08246); test: immobilized HNE, pH 3.0 wash
[30] = biological target: agarose-immobilized anhydro-trypsin (UniProt P00760); test: titer after 2 h with 5 ul immobilized anhydro-trypsin
[31] = biological target: agarose-immobilized anhydro-trypsin (UniProt P00760); test: titer after 2 h with 10 ul immobilized anhydro-trypsin
[32] = biological target: agarose-immobilized anhydro-trypsin (UniProt P00760); test: dot blot of phage eluted at pH 2.2 from 5 ul immobilized anhydro-trypsin
[33] = biological target: agarose-immobilized anhydro-trypsin (UniProt P00760); test: titer after 1 h with 10 ul immobilized anhydro-trypsin
[34] = biological target: agarose-immobilized anhydro-trypsin (UniProt P00760); test: dot blot of phage eluted at pH 2.2 from 2 ul immobilized anhydro-trypsin
[35] = biological target: agarose-immobilized anhydro-trypsin (UniProt P00760); test: dot blot of phage eluted at pH 2.2 from 10 ul immobilized anhydro-trypsin
[36] = biological target: agarose-immobilized streptavidin (UniProt P22629); test: dot blot of phage eluted at pH 2.2 from 5 ul immobilized streptavidin

Substance	percent of input phage [1] [%]	percent of input phage [3] [%]	percent of input phage [4] [%]	percent of input phage [5] [%]	percent of input phage [6] [%]	total percentage of input phage recovered [7] [%]	percent of input phage [8] [%]	total percentage of input phage recovered [9] [%]	percent of input phage [10] [%]	percent of input phage [12] [%]	binding relative to M13MP18 (trypsin [14]) [fold]	eluted phage, percent of input (trypsin [14]) [%]	percent of input phage [15] [%]	percent of input phage [18] [%]	percent of input phage [19] [%]	percent of input phage [20] [%]	percent of input phage [21] [%]	percent of input phage [22] [%]	percent of input phage [23] [%]	percent of input phage [25] [%]	other results
BPTI(K15L,MGNG)-III MA phage (designed binder)	0.316	0.014	0.163	0.211	0.264	0.57	0.026	1.8	0.13	0.079	2	0.001	0.048	0.227	0.046	0.18	0.46	0.139	0.069	–	percent of input phage [2]: 0.162%; percent of input phage [11]: 0.313%; enrichment over BPTI-III MK phage in the pH 4.0 fraction [13]: 984 fold; percent of input phage [16]: 1.67%; binding relative to M13MP18 [17]: 14000 fold; eluted phage, percent of input [17]: 4.1%; percent of input phage [24]: 0.304%
BPTI(K15L)-III MA phage (designed binder)	0.152	0.004	0.082	–	0.146	1.56	–	1	0.085	0.086	–	–	0.014	0.1	0.032	0.142	0.276	0.4	0.82	0.1	percent of input phage [26]: 0.011%; ratio of input phage bound to HNE beads over trypsin beads [27]: 36 fold; percent of input phage (trypsin [28]): 0.005%; percent of input phage [29]: 0.21%
BPTI-III MK phage (from UniProt P00974 36-93)	–	–	–	–	–	–	–	–	–	–	2000	1	–	–	–	–	–	–	–	–	percent residual titer [30]: 40%; percent residual titer [31]: 30%; percent of total phage recovered in elution buffer [32]: 20%; percent residual titer [33]: 40%; percent of total phage recovered in elution buffer [34]: 5%; percent of total phage recovered in elution buffer [35]: 50%
BPTI-III MK phage (from UniProt P00974 36-93) (other; other documents disagree on this pair)	–	–	–	–	–	0.008	–	–	–	–	–	–	–	–	0.002	–	–	–	0.001	0.005	percent of total phage recovered in elution buffer [36]: < 1%; total pfu in fraction [19]: 50000 pfu; total pfu in fraction [23]: 30000 pfu
BPTI(K15V,R17L)-III MA phage (designed binder)	–	–	–	0.355	–	1.73	0.106	–	–	0.138	–	–	–	–	0.081	–	–	0.241	0.515	–	percent of input phage [29]: 0.068%
